This note sets out measurements from patent US20240191177A1, “GROWTH PROMOTER FOR LACTIC ACID COCCI” (KIRIN HOLDINGS KABUSHIKI KAISHA, priority 2002, published 2024).

The assay relates to Lactococcus lactis subsp. lactis JCM5805 strain. Nature of the assay: Growth promoting effect, MRS medium, anaerobic cultivation (OD600). Format: cell-based. The following applies: FIG. 1B. On the procedure:
A Lactococcus lactis subsp. lactis JCM5805 strain was used as the lactic acid coccus.
The bacteria were counted by measuring the OD600 (turbidity) of the medium using an absorbance meter (Biochrom GeneQuant 1300).
Measured values were expressed as mean±standard error. One-way analysis of variance was followed by Tukey's test, and cases where p<0.05 relative to the control group were evaluated as having a significant difference.

For `O=C([O-])CCC(=O)C(=O)[O-].[Na+].[Na+]` [αKG2Na, disodium α-ketoglutarate], the “growth of the lactic acid coccus (OD600) as compared with the control” value (0.01% by mass) is reported as “tended to be promoted” and the “growth of the lactic acid coccus (OD600) as compared with the control” value (concentration of 0.1 to 4% by mass) is recorded as “significantly promoted in a concentration-dependent manner”.
